Measurements taken from patent US11998613B2, “Antibody-drug conjugates containing an anti-mesothelin antibody and uses thereof” (DEVELOPMENT CENTER FOR BIOTECHNOLOGY, priority 2020, dated 2024).

Protein sequences, listed by entry. Tags and fused reporters are not part of them. Chains listed by the source or under a name are the forms on record and can include a tag or linker.
UniProt Q13421, with tags, fused parts or gaps: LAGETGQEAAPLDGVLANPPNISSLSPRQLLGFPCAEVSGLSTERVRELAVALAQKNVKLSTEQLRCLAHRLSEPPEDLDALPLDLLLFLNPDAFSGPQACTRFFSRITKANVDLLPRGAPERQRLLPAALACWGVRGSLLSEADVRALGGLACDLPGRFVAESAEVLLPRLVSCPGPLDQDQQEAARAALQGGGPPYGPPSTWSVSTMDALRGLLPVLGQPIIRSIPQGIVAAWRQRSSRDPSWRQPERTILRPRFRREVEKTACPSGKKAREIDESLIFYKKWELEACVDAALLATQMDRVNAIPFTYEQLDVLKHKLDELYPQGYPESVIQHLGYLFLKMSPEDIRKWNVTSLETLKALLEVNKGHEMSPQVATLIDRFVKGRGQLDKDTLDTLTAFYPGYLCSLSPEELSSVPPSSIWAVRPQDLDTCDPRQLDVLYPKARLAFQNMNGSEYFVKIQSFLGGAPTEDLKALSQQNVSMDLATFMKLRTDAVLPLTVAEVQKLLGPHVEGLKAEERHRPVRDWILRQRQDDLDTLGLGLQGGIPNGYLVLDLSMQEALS

Tests used:
[1] = molecular target: T1, mesothelin protein (Homo sapiens, UniProt Q13421); assay: Affinity measurements and kinetic analysis using BIAcore (SPR), mesothelin immobilised; format: binding; settings: BIAcore T200, 25 degree C, 1:1 Langmuir model
Protocol: To know the biding kinetics difference among individual antibodies, surface plasmon resonance (SPR) measurement with a BIAcore T200 (Cytiva Inc.) was used as previously described (Karlsson & Falt, (1997) J. Immunol Methods 200:121-133). Carboxymethylated dextran biosensor chips (CM5, Cytiva Inc.) were activated with N-ethyl-N′-(3-dimethylaminopropyl)-carbodiimide hydrochloride (EDC) and N-hydroxysuccinimide (NHS) according to the supplier's instructions. Mesothelin protein was diluted with 10 mM sodium acetate, pH 4.0, into 5 μg/ml before injection at a flow rate of 10 μL/minute to achieve approximately 1500 response units (RU) of coupled protein followed by the injection of 1M ethanolamine to block unreacted groups. For kinetics measurements, two-fold serial dilutions of anti-mesothelin mAb (0.3125 nM to 40 nM) were injected in HBS-EP+ Biacore running buffer provided by the manufacturer (Cytiva Inc.) at 25 degree C. at a flow rate of 30 μL/min, and binding responses on the mesothelin protein were corrected by subtraction of responses on a blank flow cell. Association rates (kon or ka) and dissociation rates (koff or kd) were calculated using a simple one-to-one Langmuir binding model with separate fittings of kon and koff was used. (Cytiva.™. Biacore Insight Evaluation Software).

[2] = molecular target: T1, mesothelin protein; assay: Determination of antibody binding affinity by ELISA; settings: plate coated with mesothelin protein; non-linear regression
Protocol: ELISA plates were coated with 1˜2 μg/100 μl per well of mesothelin protein. Wells were rinsed for 3 times with PBS and blocked with 300 μl 5% MPBS per well for 2 hr at 37° C. After washing with PBS, wells were incubated with serial diluted mesothelin antibodies in 5% MPBS for 1.5 hours at 37° C. The plates were washed and goat polyclonal anti-human IgG-HRP antibody (1:10,000) (Jackson ImmunoResearch) was added into each well. The absorbance was measured as described above and the binding affinities of antibodies were calculated by non-linear regression with Prism software (GraphPad).

In the case of “SS1: mouse anti-mesothelin antibody clone SS1, SEQ ID NOs: 7 and 8, of U.S. Pat. No. 7,081,518 B1; expressed as human Fc chimera”, the Kd [1] is reported as 3.5 pM and the Kd [2] is reported as 83.6 pM.
